Assay results reported in PubChem BioAssay AID802 (Columbia University Molecular Screening Center, 2007).
The list shows a part of the results, in another mix than the full data. The source made the active and inactive calls.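 Rule for the calls: active = inhibition above the batch mean plus 3 SD, with images confirmed as a hit by eye (cut at about 37% in these data); inconclusive = inhibition above that limit but hit not confirmed in images; inactive = inhibition not above that limit.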

test: blockers of endothelial VCAM-1 upregulation by TNFa – imaging, HUVEC, TNFa stimulus, immunofluorescence, primary screen (AID 802); details: HUVEC TNFa-induced VCAM-1 immunofluorescence, high-content imaging; at 2 µM; stronger effect = higher value;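 note: 0% = TNF-stimulated DMSO wells and 100% = unstimulated control wells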

Compound	inhibition
COc1ccccc1OP(C)(=O)Nc1c(C)cccc1C (stereo not given)	inactive: 14.3%
Cc1nc2ccc3ccccc3c2s1.O=[N+]([O-])c1cc([N+](=O)[O-])c(O)c([N+](=O)[O-])c1	inactive: -14.7%
Cc1ccc(C)c(NP(C)(=O)Oc2ccccc2)c1 (stereo not given)	inactive: 7.3%
Cc1cc(C)cc(OP(C)(=O)Nc2ccccn2)c1 (stereo not given)	inactive: -10.4%
Cc1cc(C)cc(OP(C)(=O)Nc2ccc(C)cc2C)c1 (stereo not given)	inactive: -27%
COc1ccc(OP(C)(=O)Nc2cccc(F)c2)cc1 (stereo not given)	inactive: -2.7%
CP(=O)(Nc1ccccn1)Oc1ccc(Cl)cc1 (stereo not given)	inactive: 5.8%
CP(=O)(NC(=O)Nc1ccccc1)Oc1ccccc1 (stereo not given)	inactive: -41.1%
CP(=S)(Nn1cnnc1)Oc1ccccc1 (stereo not given)	inactive: -7.8%
CP(=O)(OC12CC3CC(CC(C3)C1)C2)OC12CC3CC(CC(C3)C1)C2	inactive: -1.8%
CC(C)(C)c1ccc(OP(C)(=O)O)cc1	inactive: -6.3%
CP(=O)(Nc1ccc(Cl)cc1)Oc1ccc(F)cc1 (stereo not given)	inactive: 7%
COc1ccccc1OP(C)(=O)Nc1c(C)n(C)n(-c2ccccc2)c1=O (stereo not given)	inactive: 3.5%
CP(=O)(Oc1ccccc1)N1CCOC1=O (stereo not given)	inactive: 15.3%
CCN(CC)CC(O)COC(=O)C(O)(c1ccccc1)C1CCCCC1 (stereo not given)	inactive: -4%
COc1ccccc1OP(C)(=O)Nc1ccc(C)cc1C (stereo not given)	inactive: 9.4%
CP(=O)(Nc1ccccn1)Oc1ccccc1 (stereo not given)	inactive: 7.5%
CCc1ccc(OP(C)(=O)O)cc1	inactive: 12%
Cc1c(NP(C)(=O)Oc2ccc(C(C)C)cc2)c(=O)n(-c2ccccc2)n1C (stereo not given)	inactive: 9%
COc1ccc(OP(C)(=O)Nc2ccccn2)cc1 (stereo not given)	inactive: 20%
CN(C)CCOC(=O)C(O)(c1ccccc1)C1CCCC1 (stereo not given)	inactive: -6.5%
Cc1nc2ccc3ccccc3c2o1.O=[N+]([O-])c1cc([N+](=O)[O-])c(O)c([N+](=O)[O-])c1	inactive: 3.9%
COc1ccccc1OP(C)(=O)Nc1ccc(C)c(C)c1 (stereo not given)	inactive: -2.1%
CP(=O)(Nc1ccccc1)Oc1ccc(F)cc1 (stereo not given)	inactive: -10.3%
CCN(CC)CCCOC(=O)C(O)(c1ccccc1)C1CCCCC1 (stereo not given)	inactive: -4.7%
CP(=O)(Nc1ccccc1F)Oc1ccccc1 (stereo not given)	inactive: 1.9%
CP(=O)(Nc1ccc2c(c1)OCCO2)Oc1ccccc1 (stereo not given)	inactive: 9.2%
CCOP(C)(=S)SCC(=O)NC(C)(CC)C(=O)O (stereo not given)	inactive: -12.6%
CN(C)CCOC(=O)C(O)(c1ccccc1)C1CCCCC1 (stereo not given)	inactive: -1.3%
COc1ccc(OP(C)(=O)Nc2cccc(Br)c2)cc1 (stereo not given)	inactive: 17.4%
